Measurements: article PMC8783695 (Angewandte Chemie (International ed. in English), 2021)

Target: T1, hMGMT (human O6-methylguanine-DNA-methyltransferase) (Homo sapiens, UniProt P16455)
T1 sequence (P16455 1-207): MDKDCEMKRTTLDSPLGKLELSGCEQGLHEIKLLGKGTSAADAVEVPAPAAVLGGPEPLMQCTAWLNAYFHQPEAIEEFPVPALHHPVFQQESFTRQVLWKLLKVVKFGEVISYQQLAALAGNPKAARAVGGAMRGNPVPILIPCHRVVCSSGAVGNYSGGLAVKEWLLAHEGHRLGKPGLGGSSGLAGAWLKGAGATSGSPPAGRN
Experiment: FRET DNA nanoswitch repair assay with hMGMT
Type: biochemical

Compound: Nc1nc(OCc2ccccc2)c2[nH]cnc2n1 [O6-BG, O^6-Benzylguanine]
- IC50: 3.5 ± 2 µM
